Values quoted from earlier work, collected in patent US8697648B2, “Protein agent for diabetes treatment and β cell imaging” (Georgia State University Research Foundation, Inc., priority 2009, dated 2014).

Settings: in human; cited from earlier work

**Q.** With Exendin 4 [reference compound] as the substance, how does the blood circulation time read?
**A.** approximately 3 hour
